US20110008343A1, “Method Of Reducing Tissue Loss In Pancreatic Islet Cell Transplantation” (priority 2007, published 2011)

Columns and labels:
[1] = Blood cell counts, liver and renal function in monkeys transplanted with porcine islets; type: in vivo, Cynomolgus monkeys (Macaca fascicularis)
[2] = Cytokine induction by LMW-DS in healthy monkeys; type: in vivo
Description: Plasma IL-6, TNFα, IL-1β, and CRP were measured using a commercial ELISA kit (Immulite IL-6, Immulite TNFα, Immulite IL-1β, and Immulite High Sensitivity CRP, respectively; Diagnostic Products Corporation, Los Angeles, Calif., USA).
Influence of LMW-DS on cytokine induction was examined using three healthy monkeys. Only a slight increase in the IL-6 levels was seen 24 hours after administration of LMW-DS in two out of three healthy monkeys (maximum 27 μg/L).

[3] = Plasma APTT and LMW-DS concentration in transplanted monkeys; type: in vivo, Cynomolgus monkeys (Macaca fascicularis); conditions: converted from APTT
Description: Blood samples: […] […] Analyses of blood and plasma samples: Activated Partial Thromboplastin Time (APTT) measurements were performed as previously described (Johansson et al., (2006) Am J. Transplant. 6 (2): 305).

[4] = system: APIs; conditions: 100, 1000 or 2500 mg/L LMW-DS, APIs from three pancreata
[5] = 24 hours after islet transplantation
[6] = transplanted monkeys, throughout the experiments

Low molecular weight dextran sulfate [LMW-DS]
ALT [1, 5]: 207.7±68.7 | AST [1, 5]: 434.7±126.4 | bleedings or other adverse reactions ([1]; transplanted monkeys): No bleedings or other adverse reactions | creatinine levels [1, 6]: within normal ranges | platelet count [1, 6]: within normal ranges | IL-6 levels ([2]; 24 hours after LMW-DS, slight increase in two out of three healthy monkeys, maximum): ≤ 27 µg/L | plasma CRP ([2]; three healthy monkeys): did not trigger an increase | plasma IL-1β ([2]; three healthy monkeys): did not trigger an increase | plasma TNFα ([2]; three healthy monkeys): did not trigger an increase | plasma concentration of LMW-DS ([3]; monkey M-5, 24 hours): 30000 ng/mL | plasma concentration of LMW-DS ([3]; monkey M-7, 24 hours): 15000 ng/mL | plasma concentration of LMW-DS ([3]; monkey M-9, 24 hours): 35000 ng/mL | effect on insulin release of APIs [4]: no adverse effect
